Giardia killer: Giardia lamblia killing; activity change, % at 7.66 µM, hits read low; Giardia lamblia trophozoite viability; AID 540267; 340,000 compounds, 0.15% hits; in the data active means activity change below about -80%; inconclusive means between about -30% and that limit;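 further: parasites exposed to compound for two days anaerobically before the ATP read; on the % scale 0 is the no-effect control and ±100 the full control effect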
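Trophozoites 100 cells/well + cpd; 48 hrs, 37 deg C, anaerobic. ATPLite 1-Step added, 15-30 min RT, luminescence read (ATP-based viability).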
Rango release inh: prevents RanGTP from dissociating the Rango-importin beta complex; O95149+P62826; Biochemical FRET Rango-importin beta, RanGTP-induced dissociation; Potency, µM (top dose mostly 46.1 µM), without a hit: top-dose activity change, negative = inhibition; 340,000 compounds, 0.071% hits; AID 540253; further: potency means the concentration at half of the fitted maximal effect; % of control where 0% means no effect; nearly all actives have a fitted effect of over 45% in size
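FRET read at 45 min, room temperature: inhibitors block the CFP/YFP signal rise when RanGTP (0.6 uM Ran, 2 mM GTP, 0.2 uM RCC1) frees Rango (0.1 uM) from importin beta (0.25 uM). Pre-read after 5 min compound exposure flags interference.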
uPA generation: inhibitors of cell surface uPA generation; Potency, µM (highest dose often 38.3 µM), inactives show at the highest dose activity change, negative = inhibition, actives largely listed as inhibitors; cell surface uPA generation assay, qHTS; AID 540303; 330,000 compounds, 0.31% hits; active means well fitted inhibition curve with a large enough effect; inconclusive means small, poorly fitted or top-dose-only effect; inactive means no such curve, though single readings can be large or run the other way; tested in mouse RAW 264.7 cells; further: potency means the concentration at half of the fitted maximal effect; on the % scale 0 is the no-effect control and ±100 the full control effect; nearly all actives have a fitted effect of over 55% in size
Rango complex inh: inhibitors of Rango-importin beta complex formation; Q14974; Rango CFP/YFP FRET sensor + importin beta, 45 min; Potency, µM (titrated, usually from 92.2 µM), without a hit: top-dose inhibition of complex formation; 340,000 compounds, 0.031% hits;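 further: potency means the concentration at half of the fitted maximal effect; 0% = DMSO wells and 100% = buffer wells lacking importin beta; nearly all actives have a fitted effect of over 15% in size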
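FRET biosensor Rango (snurportin 1 IBB between N-terminal EYFP and C-terminal Cerulean), 50 nM in PBS/1 mM DTT/0.02% Tween-20/0.1% BSA, preincubated 5 min RT with compound; 0.125 microM importin beta added, 45 min RT, CFP/YFP FRET ratio read.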
Integrin act MD: activators of alpha7 integrin expression for muscular dystrophy. alpha7betagal myoblasts, beta-gal FDG fluorescence, 48 h. Potency, µM (titrated, usually from 38.3 µM), without a hit: at the top dose activation, most hits filed as activators. 350,000 compounds, 0.064% hits. AID 624291; active means well fitted activation curve with a large enough effect; inconclusive means small, poorly fitted or top-dose-only effect; inactive means no such curve, though single readings can be large or run the other way;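 further: potency means the concentration at half of the fitted maximal effect; 100% = response of the positive control SU9516; nearly all actives have a fitted effect of over 60% in size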
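alpha7betagal+/- myoblasts (passage 13, 250/well) treated 48 h at 37C with compounds at 1:260 dilution of DMSO stock. Lysed, then beta-galactosidase activity read as FDG fluorescence (ex 480/em 540) after 30 min, with pre-read for autofluorescence.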
* = called active by the depositor; ? = inconclusive; nt = not tested or not shown; [ ] = remark or other dose. Sampled rows, rich in hits. Any-hit rate of the full collection: about 0.59%. Unless noted, the call rests on the fitted dose curve.

no. | molecule | Giardia killer | Rango release inh | uPA generation | Rango complex inh | Integrin act MD
1 | c1ccc2c(c1)-c1nc3ccccc3cc1C2N1CCCCC1 (configuration not stated) | nt | nt | nt | nt | -11.2%
2 | O=c1cccc2n1Cc1cc3ccccc3nc1-2 | -23.5 | 5.2% | 7.94µM* | 0.8% | 5.5%
3 | O=C(Nc1scc(-c2ccc(Br)cc2)c1C(=O)O)c1ccccc1F | 8.4 | 12.9% | -5.2% | 2.7% | 13.9%
4 | Cc1ccccc1C(=O)Nc1scc(-c2ccc(Br)cc2)c1C(=O)O | 0.9 | 2.3% | -23.5% | -0.7% | 2.82µM*
5 | Cc1noc(C)c1COc1ccc(C(=O)N2CCN(c3ccccc3O)CC2)cc1 | 2.6 | -7.6% | -0.6% | 3.7% | 20.0%
6 | CCCC(=O)N1CCN(c2ccc(NC(=O)c3ccc([N+](=O)[O-])o3)cc2)CC1 | -81.6* | 1.4% | -13.4% | 2.3% | -67.2%
7 | O=C(Nc1ccc(N2CCN(C(=O)c3ccc(Cl)cc3)CC2)cc1)c1ccc([N+](=O)[O-])o1 | -86.8* | -13.4% | -8.0% | 0.5% | -5.2%
8 | CC(C)(C)C(=O)N1CCN(c2ccc(NC(=O)c3ccc([N+](=O)[O-])o3)cc2)CC1 | -81.1* | -2.4% | -11.1% | -3.5% | -66.4%
9 | CN(C)Cc1c(OC(=O)c2ccc(N)cc2)ccc2ccccc12 | -12.7 | 1.9% | -0.6% | 0.4% | -11.0%
10 | CCOC(=O)C1=CC[C@H]2c3c(c4ccccc4n3C)C(=O)C1N2Cc1ccccc1 | 41.0 | -8.6% | -4.2% | -0.9% | 3.2%
11 | Cc1cc(Cc2cc(C)c(O)c(CO)c2)cc(CO)c1O | -2.2 | 8.5% | 5.2% | 65.1µM* | 11.3%
12 | O=C(CN1C(=O)NC2(CCCCC2)C1=O)Nc1ccc(Cl)cc1 | 10.9 | -24.3% | -18.3% | 0.4% | 14.1%

Following part:
no. | molecule | Giardia killer | Rango release inh | uPA generation | Rango complex inh | Integrin act MD
13 | Cc1ccc(S(=O)(=O)N2C[C@H]3N(C(=O)OC(C)C)N(C(=O)OC(C)C)C[C@H](OC(=O)Nc4c(C)noc4C)[C@@]3(O)C2)cc1 | nt | nt | nt | nt | -14.0%
14 | COCc1c(C(=O)N/N=C(/C)c2ccc(OCc3ccccc3)cc2)nnn1-c1nonc1N | 28.9 | 7.8% | -3.0% | 2.2% | 10µM*
15 | CC(C)(C)c1ccc(/C=C/C(=O)NC2=NCCS2)cc1 | -14.9 | 21.4% | 2.4% | ? | -3.4%
16 | Cc1ccc(/C=C/C(=O)NC2=NCCS2)cc1 | -12.6 | 23.5% | 10µM* | -1.4% | -24.9%
17 | Nc1ncnc2c1ncn2[C@H]1C[C@H](O)[C@@H](CO)O1 | -2.4 | -12.9% | 4.6% | 5.0% | 34.9%
18 | Nc1nc(Cl)nc2c1ncn2[C@H]1C[C@H](O)[C@@H](CO)O1 | ? | -11.6% | 0.316µM* | -1.3% | nt
19 | O=C(COC(=O)CN1C(=O)C2CCCCC2C1=O)NCc1ccc(Cl)cc1Cl (configuration not stated) | -10.5 | -5.7% | 12.1% | 5.1% | 9.6%
20 | Cc1ccc(CNCc2cn[nH]c2-c2ccc(C)cc2)cc1 | 10.7 | nt | nt | nt | nt
21 | Cc1c(/C=N/Nc2ccc(F)cc2)c(O)n(C)c(=O)c1C#N | -2.7 | -16.4% | 10.9% | ? | 7.08µM*
22 | O=C(CNC(=O)C1CCCCC1)OCCOc1ccccc1 | 9.1 | nt | nt | nt | nt
23 | Cc1cc(N/C=C/C(=O)c2ccccc2)ccc1Br | 22.3 | -26.4% | -29.2% | ? | 22.9%
24 | O=C(/C=C/Nc1ccc(F)cc1Br)c1ccccc1 | -88.8* | -8.6% | -9.4% | 0.6% | 18.0%

One compound at a time, as listed above. Screens in order: Giardia killer, Rango release inh, uPA generation, Rango complex inh, Integrin act MD
`Cc1ccc(CNCc2cn[nH]c2-c2ccc(C)cc2)cc1` is listed with 10.7, nt, nt, nt, nt
`Cc1c(/C=N/Nc2ccc(F)cc2)c(O)n(C)c(=O)c1C#N` is listed with -2.7, -16.4%, 10.9%, ?, 7.08µM*
`CC(C)(C)c1ccc(/C=C/C(=O)NC2=NCCS2)cc1` is listed with -14.9, 21.4%, 2.4%, ?, -3.4%

Sorted by number of heavy atoms (falling): part of the list above
no. | molecule | Giardia killer | Rango release inh | uPA generation | Rango complex inh | Integrin act MD
14 | COCc1c(C(=O)N/N=C(/C)c2ccc(OCc3ccccc3)cc2)nnn1-c1nonc1N | 28.9 | 7.8% | -3.0% | 2.2% | 10µM*
19 | O=C(COC(=O)CN1C(=O)C2CCCCC2C1=O)NCc1ccc(Cl)cc1Cl (configuration not stated) | -10.5 | -5.7% | 12.1% | 5.1% | 9.6%
15 | CC(C)(C)c1ccc(/C=C/C(=O)NC2=NCCS2)cc1 | -14.9 | 21.4% | 2.4% | ? | -3.4%

Other entries follow.
no. | molecule | Giardia killer | Rango release inh | uPA generation | Rango complex inh | Integrin act MD
25 | CC(C)CCOC(=O)C[N+](C)(C)CCOC1CC2CCC1(C)C2(C)C (configuration not stated) | 10.5 | 15.6% | 10µM* | -1.8% | -0.1%
26 | CN(C)c1ccc(/C=N/N=C2/NC(=O)/C(=C/c3ccc([N+](=O)[O-])cc3)S2)cc1 | -92.6* | -16.8% | -5.8% | ? | 20.8%
27 | CN(C)c1ccc(C=C2SC(=S)NC2=O)cc1 | -22.5 | ? | -10.2% | ? | -5.6%
28 | CC(=O)NC(c1cccs1)c1cc(F)c2cccnc2c1O (configuration not stated) | 8.7 | 7.1% | 5.01µM* | -2.8% | nt
29 | CC(=O)NC(c1ccco1)c1cc(F)c2cccnc2c1O (configuration not stated) | 21.9 | -16.2% | ? | ? | nt
30 | O=C(NCCn1cc(SCc2ccc(F)cc2)c2ccccc21)c1c(F)cccc1F | -22.3 | 4.7% | 10µM* | 0.5% | 3.4%
31 | CCOC(=O)COn1c(=O)c(-c2ccco2)[n+]([O-])c2ccccc21 | -14.6 | 18.4µM* | 6.0% | ? | -7.8%
32 | CCOC(=O)COn1c(=O)c(-c2ccc(C)cc2)[n+]([O-])c2ccccc21 | -12.0 | -9.2% | -4.2% | -1.9% | -11.1%
33 | C=CC(=O)NN(C)c1ncc(C(F)(F)F)cc1Cl | 17.3 | 22.1% | 3.55µM* | 3.6% | -37.5%
34 | CN(NC(=O)/C=C/C(=O)O)c1ncc(C(F)(F)F)cc1Cl | -4.3 | 0.1% | 0.8% | 0.4% | -10.2%
35 | CN(Cc1ccc(Cl)cc1)C(=O)CCl | -4.9 | 8.1% | 7.94µM* | 8.7% | -58.2%
36 | CN(C)CC(CCCCC(CN(C)C)C(=O)c1ccccc1)C(=O)c1ccccc1 (configuration not stated) | -27.4 | 1.0% | 10µM* | -2.9% | -79.0%

Continued:
no. | molecule | Giardia killer | Rango release inh | uPA generation | Rango complex inh | Integrin act MD
37 | CN(C)CCC(C(=O)c1ccccc1)c1ccccn1 (configuration not stated) | 8.8 | 12.3% | 3.0% | -4.1% | -16.6%
38 | Cc1ccc(-n2ncc(Br)c(Br)c2=O)cc1 | 11.1 | 0.3% | 12.6µM* | 9.8% | -62.1%
39 | O=c1c(Br)c(Br)cnn1-c1ccccc1 | -8.2 | 13.5% | 2.0% | -1.2% | -73.0%
40 | CC(=O)N1N=C(c2cccc(NS(=O)(=O)c3ccc(C)cc3)c2)CC1c1ccco1 (configuration not stated) | 4.9 | 1.1% | -1.4% | 0.5% | -12.0%
41 | CC(=O)N1N=C(c2ccc(NS(=O)(=O)c3ccccc3)cc2)CC1c1ccco1 (configuration not stated) | -4.0 | 14.2% | 0.708µM* | -3.8% | -14.3%
42 | CN(C)NC(=S)Nc1cccc(C(F)(F)F)c1 | 3.9 | -7.1% | -1.3% | 0.1% | -6.2%
43 | CN(C)C(=S)Nc1cccc(C(F)(F)F)c1 | ? | -0.1% | 8.0% | 1.3% | 10µM*
44 | Cc1cc2c(c(=O)o1)C1(C(=O)N(CC(=O)O)c3ccccc31)C(C#N)=C(N)O2 (configuration not stated) | 11.7 | 14.6µM*[inhibitor] | -0.3% | ? | 9.2%
45 | O=C(Cn1cnc([N+](=O)[O-])n1)NCc1ccccc1 | -3.0 | -19.5% | 13.0% | -1.3% | 15.6%
46 | O=C(Cn1ccnc1[N+](=O)[O-])NCc1ccccc1 | -83.3* | -0.2% | -4.7% | -4.6% | nt
47 | O=C(COc1ccccc1C(=O)NCc1ccccc1)Nc1ccccc1 | 3.0 | 19.3% | -13.0% | -0.8% | -29.9%
48 | COc1ccc(S(=O)(=O)N2CCOCC2)cc1C(=O)NCc1c(C)nn(Cc2ccccc2)c1C | -11.9 | 0.6% | 7.7% | 0.4% | 7.6%
49 | COc1ccc(C(=O)NCc2c(C)nn(Cc3ccccc3)c2C)cc1S(=O)(=O)N1CCOCC1 | -9.6 | 0.8% | 10µM* | -0.4% | 1.3%
